Test results as given in PMC6225166, “Polyphenols from Acorn Leaves (Quercus liaotungensis) Protect Pancreatic Beta Cells and Their Inhibitory Activity against α-Glucosidase and Protein Tyrosine Phosphatase 1B” (Molecules : A Journal of Synthetic Chemistry and Natural …, 2018).

Biological target: T1, PTP1B (human, recombinant) (Homo sapiens, UniProt P18031)
T1 construct: purchased Sigma-Aldrich (St. Louis, MO, USA)
T1 sequence (P18031 1-435): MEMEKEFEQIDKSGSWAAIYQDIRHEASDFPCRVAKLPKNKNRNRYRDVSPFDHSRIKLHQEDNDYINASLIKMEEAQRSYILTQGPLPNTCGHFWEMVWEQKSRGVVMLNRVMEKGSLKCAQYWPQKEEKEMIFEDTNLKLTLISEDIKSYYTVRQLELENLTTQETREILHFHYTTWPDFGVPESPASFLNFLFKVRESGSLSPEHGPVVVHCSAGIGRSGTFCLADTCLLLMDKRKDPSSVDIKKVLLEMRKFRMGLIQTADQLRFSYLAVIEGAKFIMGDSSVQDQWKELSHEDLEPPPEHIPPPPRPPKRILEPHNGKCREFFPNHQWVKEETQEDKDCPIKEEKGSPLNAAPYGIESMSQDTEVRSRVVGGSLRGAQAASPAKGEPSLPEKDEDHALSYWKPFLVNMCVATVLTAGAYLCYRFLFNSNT
Assay: PTP1B inhibition assay (pNPP substrate)
Type: biochemical

kaempferol-3-O-rutinoside [Compound 3]
IC50: 24.9 ± 2.39 µM
